Experimental data published in ChEMBL document CHEMBL4433209, “Novel Cyclic Biphalin Analogues by Ruthenium-Catalyzed Ring Closing Metathesis: in Vivo and in Vitro Biological Profile” (2019).

The chains behind the UniProt entries cited, without tags or fusion partners. Where a name states a change or a piece, a line headed by the entry shows the natural chain unless it says otherwise.
UniProt P35372, whole entry, looked up: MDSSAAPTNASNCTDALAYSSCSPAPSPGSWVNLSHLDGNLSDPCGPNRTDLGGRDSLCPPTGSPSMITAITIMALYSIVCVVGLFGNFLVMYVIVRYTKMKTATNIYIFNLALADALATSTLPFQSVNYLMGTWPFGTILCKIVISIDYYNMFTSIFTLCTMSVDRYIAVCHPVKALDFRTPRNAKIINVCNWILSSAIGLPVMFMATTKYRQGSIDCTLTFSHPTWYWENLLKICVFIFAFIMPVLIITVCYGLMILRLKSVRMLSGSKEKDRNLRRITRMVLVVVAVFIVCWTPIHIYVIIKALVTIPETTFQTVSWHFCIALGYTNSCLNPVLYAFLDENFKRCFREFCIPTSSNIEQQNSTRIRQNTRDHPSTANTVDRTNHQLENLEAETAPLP
UniProt P41145: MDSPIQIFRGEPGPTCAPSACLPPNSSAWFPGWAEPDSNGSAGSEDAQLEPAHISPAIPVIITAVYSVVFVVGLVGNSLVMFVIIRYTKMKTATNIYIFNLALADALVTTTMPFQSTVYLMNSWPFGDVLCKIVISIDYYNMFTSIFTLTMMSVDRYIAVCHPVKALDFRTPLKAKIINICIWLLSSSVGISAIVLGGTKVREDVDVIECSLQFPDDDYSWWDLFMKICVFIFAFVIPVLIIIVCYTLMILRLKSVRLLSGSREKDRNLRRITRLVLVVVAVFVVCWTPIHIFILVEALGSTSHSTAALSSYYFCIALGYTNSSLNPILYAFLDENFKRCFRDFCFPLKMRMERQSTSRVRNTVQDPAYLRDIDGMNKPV
UniProt P41143, whole entry, looked up: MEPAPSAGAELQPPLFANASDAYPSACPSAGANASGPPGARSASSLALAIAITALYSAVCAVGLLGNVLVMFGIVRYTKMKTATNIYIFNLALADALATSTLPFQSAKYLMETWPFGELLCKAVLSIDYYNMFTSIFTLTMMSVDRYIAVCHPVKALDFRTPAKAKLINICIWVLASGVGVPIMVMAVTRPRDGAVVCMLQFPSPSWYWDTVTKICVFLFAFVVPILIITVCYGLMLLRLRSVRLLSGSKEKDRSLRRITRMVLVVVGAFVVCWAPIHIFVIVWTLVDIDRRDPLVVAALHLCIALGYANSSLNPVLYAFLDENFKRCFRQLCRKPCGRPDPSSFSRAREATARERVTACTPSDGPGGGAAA

Key:
[1] = target: Mu-type opioid receptor (Homo sapiens) (UniProt P35372); assay: Agonist activity at human mu opioid receptor expressed in CHO cell membranes incubated for 1 hr by [35S]GTPgammaS binding assay relative to DAMGO
[2] = target: Kappa-type opioid receptor (Homo sapiens) (UniProt P41145); assay: Agonist activity at human kappa opioid receptor expressed in CHO cell membranes incubated for 1 hr by [35S]GTPgammaS binding assay relative to U50,488
[3] = target: Delta-type opioid receptor (Homo sapiens) (UniProt P41143); assay: Antagonist activity at human delta opioid receptor expressed in CHO cell membranes assessed as reduction in SNC80-induced [35S]GTPgammaS binding incubated for 1 hr relative to control
[4] = target: Delta-type opioid receptor (Homo sapiens) (UniProt P41143); assay: Antagonist activity at human delta opioid receptor expressed in CHO cells assessed as reduction in SNC80-induced inhibition of forskolin stimulated cAMP accumulation preincubated for 15 mins followed SNC80 and forskolin addition and measured after 10 mins relative to control
Mus musculus [5] = assay: Analgesic activity in CD1 mouse at 1.5 nmol, iv measured after 45 mins by hot plate test relative to control
Mus musculus [6] = assay: Analgesic activity in CD1 mouse at 0.15 nmol, icv measured after 60 mins by hot plate test relative to control

N[C@@H](Cc1ccc(O)cc1)C(=O)N[C@@H]1C/C=C/C[C@@H](NC(=O)[C@@H](N)Cc2ccc(O)cc2)C(=O)NCC(=O)N[C@@H](Cc2ccccc2)C(=O)NNC(=O)[C@H](Cc2ccccc2)NC(=O)CNC1=O
Emax [1]: 85.7%
Emax [2]: 73.3%
Imax [3]: 27.3%
Activity [4]: inactive

C[C@@H](NC(=O)[C@@H](N)Cc1ccc(O)cc1)C(=O)NCC(=O)N[C@@H](Cc1ccccc1)C(=O)NNC(=O)[C@H](Cc1ccccc1)NC(=O)CNC(=O)[C@@H](C)NC(=O)[C@@H](N)Cc1ccc(O)cc1
Activity (Mus musculus [5]): Active
Activity (Mus musculus [6]): Active

N[C@@H](Cc1ccc(O)cc1)C(=O)N[C@@H]1C/C=C\C[C@@H](NC(=O)[C@@H](N)Cc2ccc(O)cc2)C(=O)NCC(=O)N[C@@H](Cc2ccccc2)C(=O)NNC(=O)[C@H](Cc2ccccc2)NC(=O)CNC1=O
Emax [1]: 91%
Emax [2]: 69%
Imax [3]: 25.6%
Activity [4]: inactive

Activity calls are given as the source filed them. The rule behind the calls is not given here.
